US11939340B2, “CDK inhibitors and their use as pharmaceuticals” (Prelude Therapeutics Incorporated, priority 2022, dated 2024)
pIC50: −log10 of the molar value.

By UniProt entry, the sequences of proteins in these tests, tags left out.
UniProt P11802, whole entry: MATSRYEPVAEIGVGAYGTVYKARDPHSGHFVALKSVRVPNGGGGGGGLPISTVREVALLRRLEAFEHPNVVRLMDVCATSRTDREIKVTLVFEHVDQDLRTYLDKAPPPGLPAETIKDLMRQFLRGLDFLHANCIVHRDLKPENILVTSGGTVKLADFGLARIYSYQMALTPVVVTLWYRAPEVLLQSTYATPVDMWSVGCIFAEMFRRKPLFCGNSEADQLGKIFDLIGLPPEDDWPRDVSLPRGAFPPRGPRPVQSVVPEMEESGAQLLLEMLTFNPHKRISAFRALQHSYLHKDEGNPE
UniProt P24385, whole entry partner: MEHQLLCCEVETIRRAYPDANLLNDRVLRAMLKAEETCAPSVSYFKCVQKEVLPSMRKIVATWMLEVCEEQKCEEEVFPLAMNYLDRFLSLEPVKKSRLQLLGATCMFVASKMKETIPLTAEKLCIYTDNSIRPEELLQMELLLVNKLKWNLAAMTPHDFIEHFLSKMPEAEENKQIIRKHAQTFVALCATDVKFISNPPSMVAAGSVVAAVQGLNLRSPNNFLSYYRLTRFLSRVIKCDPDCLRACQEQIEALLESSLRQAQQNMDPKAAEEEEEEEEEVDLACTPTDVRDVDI

What was measured:
[1] = target: CDK2/Cyclin E2 (Homo sapiens, UniProt P24941); experiment: CDK2/CyclinE2 Enzymatic Activity Assay (TR-FRET); conditions: read-out: CDK2_El IC50, CDK2/CyclinE2 1 nM, ATP 1 mM
Procedure: CDK2/CyclinE2 Enzymatic Activity Assay
(§1) The inhibitory activity of compounds was evaluated in vitro using TR-FRET assay with white 384-well low volume microplate (Greiner Bio-One). CDK2/Cyclin E2 catalyzed phosphorylation of peptide in the presence and absence of compounds was measured and used in IC50 determination. Recombinant protein complex CDK2/Cyclin E2, expressed from insect cell, was purchased from ProQinase. Testing compounds were dissolved in DMSO at 1 mM and tested in 9-dose IC50 mode. The reaction mixture was prepared by mixing CDK2/CyclinE2 (1 nM final), ULight-4E-BP1 (50 nM final, Perkinelmer, TRF0128-D), and ATP (1 mM final) in assay buffer (20 mM of HEPES pH 7.4, 1 mM of EGTA, 0.05% BSA, 0.005% Tween 20, and 1 mM TCEP). The compound of interest in DMSO was added to each well in 3-fold serial dilution by dispenser (TECAN D300E) to make a 9.9 μL of reaction mixture. After 20 minutes preincubation at room temperature, 0.1 μL MgCl2 (10 mM final) was added to initiate the reaction. […] The reaction signal was measured by Envision multimode plate reader (PerkinElmer, 2102-0010). IC50 values were determined by fitting the data to the standard 4 parameters with Hill Slope using GraphPad Prism software.

[2] = target: CDK4/Cyclin D1 (Homo sapiens, UniProt P11802); experiment: CDK4/CyclinD1 Enzymatic Activity Assay (TR-FRET); conditions: read-out: CDK4_D1 IC50, CDK4/CyclinD1 1 nM, ATP 2 mM
Procedure: CDK4/CyclinD1 Enzymatic Activity Assay
as §1, with “(Greiner Bio-One). CDK4/Cyclin D1 catalyzed phosphorylation” for “(Greiner Bio-One). CDK2/Cyclin E2 catalyzed phosphorylation”, “protein complex CDK4/Cyclin D1, expressed from” for “protein complex CDK2/Cyclin E2, expressed from”, “by mixing CDK4/CyclinD1 (1 nM” for “by mixing CDK2/CyclinE2 (1 nM”, “final), ULight-4E-BP1 (100 nM final,” for “final), ULight-4E-BP1 (50 nM final,”, “and ATP (2 mM final)” for “and ATP (1 mM final)”, “dilution by the dispenser (TECAN” for “dilution by dispenser (TECAN”

pIC50 [1]	pIC50 [2]	Compound
> 7.00	> 7.00	CC(C)C12CCCCN1C(=O)c1cc(-c3nc(NC4CCN(S(C)(=O)=O)CC4)ncc3C(F)(F)F)sc12 (single isomer, unassigned)
> 7.00	> 7.00	CC(C)C12CCCN1C(=O)c1cc(-c3nc(NC4CCN(S(C)(=O)=O)CC4)ncc3C(F)(F)F)sc12 (single isomer, unassigned)
